According to patent US6964760B2, “Antimicrobial polypeptide, nucleic acid, and methods of use” (University of Florida Research Foundation, priority 1997, dated 2005):

Conditions: at concentrations required for NMR (2mM samples were made in 70-90% acetonitrile-d3)

mutacin 1140
Solubility in aqueous solutions: not soluble
